Source: ChEMBL document CHEMBL3608232, “Exploring the Existing Drug Space for Novel pTyr Mimetic and SHP2 Inhibitors” (ACS Med Chem Lett, 2015)

The chains behind the UniProt entries cited, without tags or fusion partners. Where a name states a change or a piece, a line headed by the entry shows the natural chain unless it says otherwise.
UniProt P28827, whole entry: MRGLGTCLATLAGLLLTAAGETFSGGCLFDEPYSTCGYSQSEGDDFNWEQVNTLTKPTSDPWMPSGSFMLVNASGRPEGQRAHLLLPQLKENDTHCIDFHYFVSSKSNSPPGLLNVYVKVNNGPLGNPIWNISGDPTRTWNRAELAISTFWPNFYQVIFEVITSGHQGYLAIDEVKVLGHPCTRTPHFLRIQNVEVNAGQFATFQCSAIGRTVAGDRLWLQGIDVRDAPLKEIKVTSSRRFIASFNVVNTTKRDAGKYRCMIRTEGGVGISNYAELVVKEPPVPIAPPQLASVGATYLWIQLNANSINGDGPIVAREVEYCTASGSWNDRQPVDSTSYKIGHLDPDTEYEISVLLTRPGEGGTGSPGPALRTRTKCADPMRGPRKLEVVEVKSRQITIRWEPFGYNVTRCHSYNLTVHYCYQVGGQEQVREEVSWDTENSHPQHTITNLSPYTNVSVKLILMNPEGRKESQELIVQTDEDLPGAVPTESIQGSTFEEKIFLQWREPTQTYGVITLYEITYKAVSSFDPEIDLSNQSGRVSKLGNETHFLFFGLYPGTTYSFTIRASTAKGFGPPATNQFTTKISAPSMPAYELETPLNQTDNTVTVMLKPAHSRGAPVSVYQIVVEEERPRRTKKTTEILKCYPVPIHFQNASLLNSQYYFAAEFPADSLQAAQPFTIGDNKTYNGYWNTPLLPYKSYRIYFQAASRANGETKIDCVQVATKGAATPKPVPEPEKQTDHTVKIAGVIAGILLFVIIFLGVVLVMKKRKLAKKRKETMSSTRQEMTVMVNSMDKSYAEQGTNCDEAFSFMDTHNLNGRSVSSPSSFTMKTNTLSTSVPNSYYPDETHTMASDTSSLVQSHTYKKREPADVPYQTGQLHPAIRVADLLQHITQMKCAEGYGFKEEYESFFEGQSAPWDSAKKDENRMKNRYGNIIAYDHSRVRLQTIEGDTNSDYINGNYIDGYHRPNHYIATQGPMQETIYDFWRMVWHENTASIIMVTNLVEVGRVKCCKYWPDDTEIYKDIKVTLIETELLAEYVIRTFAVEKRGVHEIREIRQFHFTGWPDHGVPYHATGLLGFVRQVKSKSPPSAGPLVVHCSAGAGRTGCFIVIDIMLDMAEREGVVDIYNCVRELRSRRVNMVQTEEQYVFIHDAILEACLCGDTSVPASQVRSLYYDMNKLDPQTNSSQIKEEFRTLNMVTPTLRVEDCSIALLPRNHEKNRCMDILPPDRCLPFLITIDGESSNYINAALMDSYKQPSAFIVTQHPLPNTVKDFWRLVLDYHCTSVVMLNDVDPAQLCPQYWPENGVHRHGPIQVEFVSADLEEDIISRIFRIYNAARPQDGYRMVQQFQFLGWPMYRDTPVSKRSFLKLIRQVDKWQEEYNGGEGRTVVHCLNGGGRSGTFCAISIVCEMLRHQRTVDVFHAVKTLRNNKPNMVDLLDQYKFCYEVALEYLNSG
UniProt P10586, whole entry: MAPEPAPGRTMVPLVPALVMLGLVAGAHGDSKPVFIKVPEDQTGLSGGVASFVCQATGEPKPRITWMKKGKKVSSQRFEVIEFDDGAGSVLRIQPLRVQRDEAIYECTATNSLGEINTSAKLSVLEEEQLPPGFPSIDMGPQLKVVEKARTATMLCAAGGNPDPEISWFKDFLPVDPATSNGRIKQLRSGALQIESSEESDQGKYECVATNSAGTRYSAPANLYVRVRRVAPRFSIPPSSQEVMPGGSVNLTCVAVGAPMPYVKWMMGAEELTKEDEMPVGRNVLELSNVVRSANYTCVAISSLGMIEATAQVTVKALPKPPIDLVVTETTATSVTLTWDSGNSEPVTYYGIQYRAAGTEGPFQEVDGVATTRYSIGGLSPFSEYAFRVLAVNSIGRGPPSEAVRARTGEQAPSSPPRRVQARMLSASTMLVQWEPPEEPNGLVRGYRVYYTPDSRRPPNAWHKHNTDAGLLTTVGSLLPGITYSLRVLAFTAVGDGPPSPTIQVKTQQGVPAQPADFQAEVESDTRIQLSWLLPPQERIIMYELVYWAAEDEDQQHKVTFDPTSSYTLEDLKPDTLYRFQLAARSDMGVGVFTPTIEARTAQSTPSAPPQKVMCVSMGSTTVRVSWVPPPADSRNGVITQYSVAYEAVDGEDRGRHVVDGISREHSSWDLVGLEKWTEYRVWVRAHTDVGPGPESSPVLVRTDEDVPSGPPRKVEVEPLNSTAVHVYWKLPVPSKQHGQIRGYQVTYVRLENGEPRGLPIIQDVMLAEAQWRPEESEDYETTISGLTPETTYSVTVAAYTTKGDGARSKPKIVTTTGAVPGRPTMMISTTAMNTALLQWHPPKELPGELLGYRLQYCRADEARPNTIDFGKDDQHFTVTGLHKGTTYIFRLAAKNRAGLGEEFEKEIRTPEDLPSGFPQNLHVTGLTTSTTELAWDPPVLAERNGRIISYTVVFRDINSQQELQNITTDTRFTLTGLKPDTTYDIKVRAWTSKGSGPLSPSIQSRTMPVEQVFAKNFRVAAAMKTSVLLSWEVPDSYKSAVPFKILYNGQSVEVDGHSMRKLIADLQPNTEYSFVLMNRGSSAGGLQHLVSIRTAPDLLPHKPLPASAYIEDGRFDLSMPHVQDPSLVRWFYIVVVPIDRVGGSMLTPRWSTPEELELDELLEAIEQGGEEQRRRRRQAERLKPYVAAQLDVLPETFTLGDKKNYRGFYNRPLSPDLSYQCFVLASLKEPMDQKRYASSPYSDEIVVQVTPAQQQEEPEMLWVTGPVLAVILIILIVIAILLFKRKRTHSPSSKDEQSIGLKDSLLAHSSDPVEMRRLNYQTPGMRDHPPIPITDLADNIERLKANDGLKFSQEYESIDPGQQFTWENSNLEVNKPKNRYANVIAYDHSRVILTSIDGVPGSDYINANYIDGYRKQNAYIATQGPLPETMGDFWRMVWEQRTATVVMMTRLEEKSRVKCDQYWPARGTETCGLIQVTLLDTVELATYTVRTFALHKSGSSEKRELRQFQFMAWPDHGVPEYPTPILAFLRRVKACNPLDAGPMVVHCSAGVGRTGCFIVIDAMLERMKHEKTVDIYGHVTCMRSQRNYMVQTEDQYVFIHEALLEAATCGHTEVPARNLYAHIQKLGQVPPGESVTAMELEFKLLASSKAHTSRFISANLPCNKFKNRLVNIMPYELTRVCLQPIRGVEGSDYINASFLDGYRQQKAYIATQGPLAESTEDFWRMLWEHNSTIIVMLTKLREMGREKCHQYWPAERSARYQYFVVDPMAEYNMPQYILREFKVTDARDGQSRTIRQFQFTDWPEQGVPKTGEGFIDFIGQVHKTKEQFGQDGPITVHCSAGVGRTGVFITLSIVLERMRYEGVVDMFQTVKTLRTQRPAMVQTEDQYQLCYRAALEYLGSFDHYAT
UniProt P23467: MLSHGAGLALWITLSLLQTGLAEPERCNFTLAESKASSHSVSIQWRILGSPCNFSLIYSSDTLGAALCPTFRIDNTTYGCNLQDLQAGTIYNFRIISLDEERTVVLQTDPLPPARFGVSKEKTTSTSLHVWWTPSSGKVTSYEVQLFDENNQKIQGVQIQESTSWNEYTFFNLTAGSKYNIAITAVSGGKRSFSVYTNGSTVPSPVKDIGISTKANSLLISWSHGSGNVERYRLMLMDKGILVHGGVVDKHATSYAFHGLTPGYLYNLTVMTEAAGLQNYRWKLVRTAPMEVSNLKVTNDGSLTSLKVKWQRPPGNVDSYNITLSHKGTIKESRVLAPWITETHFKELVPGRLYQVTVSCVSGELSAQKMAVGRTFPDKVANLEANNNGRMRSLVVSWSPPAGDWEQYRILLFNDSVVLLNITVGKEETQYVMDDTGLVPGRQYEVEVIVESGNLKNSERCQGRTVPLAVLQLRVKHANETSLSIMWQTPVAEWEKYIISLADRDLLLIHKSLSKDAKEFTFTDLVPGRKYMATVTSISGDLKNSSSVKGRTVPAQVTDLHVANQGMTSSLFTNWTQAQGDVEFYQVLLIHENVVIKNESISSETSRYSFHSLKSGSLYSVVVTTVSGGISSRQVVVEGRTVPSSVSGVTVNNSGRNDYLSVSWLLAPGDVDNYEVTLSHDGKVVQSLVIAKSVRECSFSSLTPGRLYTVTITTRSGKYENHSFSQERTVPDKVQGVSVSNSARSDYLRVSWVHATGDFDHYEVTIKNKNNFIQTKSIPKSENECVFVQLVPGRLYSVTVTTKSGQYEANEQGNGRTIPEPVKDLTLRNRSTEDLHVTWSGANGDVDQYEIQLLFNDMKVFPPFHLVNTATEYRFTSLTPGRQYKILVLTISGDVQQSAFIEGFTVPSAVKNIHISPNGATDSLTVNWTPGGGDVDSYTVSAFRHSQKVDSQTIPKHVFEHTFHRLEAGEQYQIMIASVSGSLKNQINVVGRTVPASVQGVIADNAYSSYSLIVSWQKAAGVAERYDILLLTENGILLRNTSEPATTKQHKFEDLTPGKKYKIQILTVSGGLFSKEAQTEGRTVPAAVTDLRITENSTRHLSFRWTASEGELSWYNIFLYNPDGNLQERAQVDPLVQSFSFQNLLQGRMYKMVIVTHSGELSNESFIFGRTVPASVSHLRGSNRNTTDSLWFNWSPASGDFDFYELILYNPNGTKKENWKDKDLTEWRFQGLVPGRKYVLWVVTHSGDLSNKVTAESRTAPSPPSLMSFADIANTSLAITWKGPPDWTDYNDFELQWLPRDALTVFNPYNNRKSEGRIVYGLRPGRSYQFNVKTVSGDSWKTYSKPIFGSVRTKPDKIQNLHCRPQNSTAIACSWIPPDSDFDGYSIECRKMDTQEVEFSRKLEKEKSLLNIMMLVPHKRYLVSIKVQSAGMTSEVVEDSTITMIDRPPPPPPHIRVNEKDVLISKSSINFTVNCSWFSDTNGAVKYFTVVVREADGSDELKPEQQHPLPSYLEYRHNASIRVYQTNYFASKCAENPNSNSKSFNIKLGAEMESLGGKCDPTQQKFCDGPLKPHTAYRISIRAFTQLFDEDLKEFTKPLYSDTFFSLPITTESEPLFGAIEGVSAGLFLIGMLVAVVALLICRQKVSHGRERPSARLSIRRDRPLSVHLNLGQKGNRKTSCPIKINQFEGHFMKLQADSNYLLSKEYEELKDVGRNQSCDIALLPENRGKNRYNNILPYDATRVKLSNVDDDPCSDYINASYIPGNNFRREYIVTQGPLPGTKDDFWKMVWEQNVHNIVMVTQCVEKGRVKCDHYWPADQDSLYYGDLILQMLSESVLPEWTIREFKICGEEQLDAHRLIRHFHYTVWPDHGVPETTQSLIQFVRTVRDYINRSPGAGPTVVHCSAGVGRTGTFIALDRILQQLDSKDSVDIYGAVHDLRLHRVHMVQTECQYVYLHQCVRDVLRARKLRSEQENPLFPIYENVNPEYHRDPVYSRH

How the values were obtained:
[1] = target: Receptor-type tyrosine-protein phosphatase mu (Homo sapiens, UniProt P28827); test: Inhibition of phosphatase activity of human PTPmu using pNPP as a substrate after 10 mins by spectrophotometer analysis
[2] = target: Receptor-type tyrosine-protein phosphatase F (Homo sapiens, UniProt P10586); test: Inhibition of phosphatase activity of human LAR using pNPP as a substrate after 10 mins by spectrophotometer analysis
[3] = target: T1, Low molecular weight phosphotyrosine protein phosphatase (Homo sapiens, UniProt P24666); test: Inhibition of phosphatase activity of human LMWPTP using pNPP as a substrate after 10 mins by spectrophotometer analysis
T1 sequence (P24666 whole entry): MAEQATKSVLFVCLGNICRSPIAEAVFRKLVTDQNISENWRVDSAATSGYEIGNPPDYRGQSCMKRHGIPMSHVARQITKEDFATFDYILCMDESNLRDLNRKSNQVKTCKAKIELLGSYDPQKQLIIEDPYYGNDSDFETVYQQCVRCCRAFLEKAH

[4] = target: Receptor-type tyrosine-protein phosphatase beta (Homo sapiens, UniProt P23467); test: Inhibition of phosphatase activity of human PTPbeta using pNPP as a substrate after 10 mins by spectrophotometer analysis
[5] = target: T2, Serine/threonine-protein phosphatase 5 (Homo sapiens, UniProt P53041); test: Inhibition of phosphatase activity of human PP5 using pNPP as a substrate after 10 mins by spectrophotometer analysis
T2 sequence (P53041 whole entry): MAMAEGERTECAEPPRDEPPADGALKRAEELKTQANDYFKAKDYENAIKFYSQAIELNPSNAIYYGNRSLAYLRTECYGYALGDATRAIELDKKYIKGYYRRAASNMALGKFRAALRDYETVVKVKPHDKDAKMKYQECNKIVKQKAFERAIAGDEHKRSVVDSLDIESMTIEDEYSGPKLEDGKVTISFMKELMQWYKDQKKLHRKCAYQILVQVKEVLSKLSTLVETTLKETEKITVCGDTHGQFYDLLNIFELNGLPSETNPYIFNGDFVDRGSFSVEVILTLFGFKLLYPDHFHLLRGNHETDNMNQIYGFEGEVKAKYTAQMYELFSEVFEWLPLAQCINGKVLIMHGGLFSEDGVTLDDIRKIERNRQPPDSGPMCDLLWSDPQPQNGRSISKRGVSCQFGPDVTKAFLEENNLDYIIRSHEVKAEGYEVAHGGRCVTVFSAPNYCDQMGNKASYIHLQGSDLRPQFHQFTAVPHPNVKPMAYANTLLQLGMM

[6] = target: T3, Tyrosine-protein phosphatase non-receptor type 7 (Homo sapiens, UniProt P35236); test: Inhibition of phosphatase activity of human HePTP using pNPP as a substrate after 10 mins by spectrophotometer analysis
T3 sequence (P35236 whole entry): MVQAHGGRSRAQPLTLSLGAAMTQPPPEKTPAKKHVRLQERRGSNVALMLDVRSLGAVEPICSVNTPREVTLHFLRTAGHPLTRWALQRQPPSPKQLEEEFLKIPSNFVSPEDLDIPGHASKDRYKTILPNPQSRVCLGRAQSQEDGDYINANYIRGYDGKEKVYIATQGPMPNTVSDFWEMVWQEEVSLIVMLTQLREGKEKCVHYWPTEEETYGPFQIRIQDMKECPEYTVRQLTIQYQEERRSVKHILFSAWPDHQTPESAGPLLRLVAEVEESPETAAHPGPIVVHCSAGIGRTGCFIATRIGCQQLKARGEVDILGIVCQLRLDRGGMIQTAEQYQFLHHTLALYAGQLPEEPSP

IC50 [1]: > 50 µM
IC50 [2]: > 50 µM
IC50 [3]: > 50 µM
IC50 [4]: > 50 µM
IC50 [5]: > 50 µM
IC50 [6]: > 50 µM
Structure (SMILES): CC(C)c1ccc(NC(=O)C(=O)Nc2ccc(NC(=O)C(c3ccccc3)S(=O)(=O)O)cc2)cc1 (stereo unspecified)
